System: RNA target: 5′-rG CUA GAG AAG UC G (SEQ ID NO: 40)
Experiment: UV melting, two triazole linkages MeC-MeC steps, RNA target (Table 7)
Settings: for Tm RNA target: two MeC-MeC steps; for ΔTm/mod RNA target: per modification, relative to unmodified duplex (ON35)

Row | Substance | Tm RNA target | ΔTm/mod RNA target
1 | 5′-dCGA^MeCp^MeCTCT^MeCp^MeCAGC | 70.1 | –
2 | 5′-dCGA^MeCp^MeC^LTCT^MeCp^MeC^LAGC | >75 | > 2.5 °C
3 | 5′-dCGA^MeCt^MeCTCT^MeCt^MeCAGC | 59.1 | -5.5 °C
4 | 5′-dCGA^MeCt^MeC^LTCT^MeCt^MeC^LAGC | 67.1 | -1.5 °C

Source: patent US11110114B2, “Dinucleotides” (OXFORD UNIVERSITY INNOVATION LIMITED, priority 2017, dated 2021)
